Molecular target: human DGKζ (Homo sapiens (Human), UniProt Q13574)
Assay: Human DGKζ kinase activity inhibition assay (ADP-Glo)
Assay type: biochemical
Details: in vitro human DGKζ kinase activity inhibition assay
Procedure: Human DGKζ Kinase Activity Inhibition Assay. Human diacylglycerol kinase zeta (DGKζ) inhibitory activity of compounds of the present invention was quantified employing the human DGKζ kinase activity assay as described in the following paragraphs. In essence, the enzyme activity was measured by quantification of the adenosine-di-phosphate (ADP) generated as a co-product of the enzyme reaction via the “ADP-Glo™ Kinase Assay” kit from the company Promega. This detection system works as follows: In a first step the adenosine-tri-phosphate (ATP) not consumed in the kinase reaction is quantitatively converted to cyclic adenosine-mono-phosphate (cAMP) employing an adenylate cyclase (“ADP-Glo-reagent”), then the adenylate cyclase is stopped and the ADP generated in the kinase reaction is converted to ATP, which subsequently generates in a luciferase-based reaction a glow-luminescence signal (“Kinase Detection Reagent”). C-terminally FLAG-tagged, recombinant full-length human DGKζ (in house expressed in baculovirus infected insect cells, purified using anti-Flag pulldown and size exclusion chromatography) was used as enzyme. As an alternative, commercially available enzyme by Carnabio can be used. […]

Protein sequences, listed by entry. Tags and fused reporters are not part of them. Chains listed by the source or under a name are the forms on record and can include a tag or linker.
UniProt Q13574, other isoform, or with tags, fused parts or gaps: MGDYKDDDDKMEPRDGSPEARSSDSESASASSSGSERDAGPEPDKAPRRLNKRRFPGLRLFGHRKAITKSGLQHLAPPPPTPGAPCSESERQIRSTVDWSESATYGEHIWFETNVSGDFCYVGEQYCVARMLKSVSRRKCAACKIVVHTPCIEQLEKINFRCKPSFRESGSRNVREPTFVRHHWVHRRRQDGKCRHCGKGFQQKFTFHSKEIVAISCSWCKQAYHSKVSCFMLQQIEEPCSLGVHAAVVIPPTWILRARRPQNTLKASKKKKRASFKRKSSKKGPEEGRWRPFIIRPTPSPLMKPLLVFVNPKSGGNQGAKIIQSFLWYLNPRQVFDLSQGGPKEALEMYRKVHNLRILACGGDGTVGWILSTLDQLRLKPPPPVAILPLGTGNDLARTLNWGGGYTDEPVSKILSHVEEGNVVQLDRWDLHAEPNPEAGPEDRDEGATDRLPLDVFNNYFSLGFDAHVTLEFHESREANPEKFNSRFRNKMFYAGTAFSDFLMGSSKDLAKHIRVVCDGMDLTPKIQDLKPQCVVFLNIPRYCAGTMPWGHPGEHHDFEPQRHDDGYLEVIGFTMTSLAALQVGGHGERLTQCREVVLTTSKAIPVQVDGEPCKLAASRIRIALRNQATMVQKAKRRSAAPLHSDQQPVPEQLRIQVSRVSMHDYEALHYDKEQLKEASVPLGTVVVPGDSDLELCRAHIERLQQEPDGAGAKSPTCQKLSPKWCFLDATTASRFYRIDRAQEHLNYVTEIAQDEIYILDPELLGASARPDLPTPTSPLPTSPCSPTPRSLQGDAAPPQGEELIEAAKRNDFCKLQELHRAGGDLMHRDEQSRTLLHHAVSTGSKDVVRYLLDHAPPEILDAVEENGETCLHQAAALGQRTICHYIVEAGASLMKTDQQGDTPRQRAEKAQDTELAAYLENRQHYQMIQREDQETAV

Cc1ccc(NC(=O)COc2ccc(C(=O)c3sc(N(c4ccc(F)cc4)C(C)C(N)=O)nc3N)cc2)cc1 (racemic) [Example 105, rac-2-(N-[4-amino-5-[4-[2-(4-methylanilino)-2-oxo-ethoxy]benzoyl]thiazol-2-yl]-4-fluoro-anilino)propanamide] gave an IC50 of 6.45 nM.

Source: patent publication US11964953B2, “Substituted aminothiazoles as DGKzeta inhibitors for immune activation” (Bayer Aktiengesellschaft, priority 2020, dated 2024)
